Measurements reported in US9364554B2, “Extracellular targeted drug conjugates” (priority 2009, dated 2016).

Test system: A549 cells
Assay: In vitro cell proliferation assay, Example 4 (CellTiter-Glo, 2 days)
Format: cell-based, human
Conditions: within the testing concentration range; antibodies alone = reduced antibody with linker, no agent
Procedure: In vitro cell proliferation assays. EDCs of the invention and comparative compounds were assayed in three cancer cell lines to confirm cytotoxic activity. All cell lines were maintained in complete media [RPMI medium 1640 supplemented with 10% (wt/vol) fetal bovine serum and Gentamycin ([…])]. Cells were plated at a density of 5,000 cells per well of each 96-well black tissue culture treated microtiter plate in 95 ul complete media, then were grown for 24 hour at 37° C. with 7% CO2 in a humidified incubator before agent/conjugate addition. In a separate 96-well plate, agent (in DMSO) and antibody conjugate (in PBS) stocks were serially diluted in complete media at 20× final working concentrations, and 5 ul added to the cells used in the assay. Doxorubicin was used as the control to monitor the behavior of the cell lines used. Cells were incubated with the agent/conjugate for 2 days before luminescence reading. Cell viability testing used the CellTiter-Glo luminescent cell viability assay (Promega, Madison, Wis.).

## Erb-CEN09-104
  A549 cell cytotoxicity (in words): not active
